We go through two substances from patent publication US20100298377A1, “NOVEL SUBSTITUTED INDAZOLES, THE PREPARATION THEREOF AND USE OF SAME IN THERAPEUTICS” (SANOFI-AVENTIS, priority 2007, published 2010).

Amino acid sequences for entries named in this document (tags omitted). Residues count along the entry.
UniProt P31749, 118-480 S473D limits assumed: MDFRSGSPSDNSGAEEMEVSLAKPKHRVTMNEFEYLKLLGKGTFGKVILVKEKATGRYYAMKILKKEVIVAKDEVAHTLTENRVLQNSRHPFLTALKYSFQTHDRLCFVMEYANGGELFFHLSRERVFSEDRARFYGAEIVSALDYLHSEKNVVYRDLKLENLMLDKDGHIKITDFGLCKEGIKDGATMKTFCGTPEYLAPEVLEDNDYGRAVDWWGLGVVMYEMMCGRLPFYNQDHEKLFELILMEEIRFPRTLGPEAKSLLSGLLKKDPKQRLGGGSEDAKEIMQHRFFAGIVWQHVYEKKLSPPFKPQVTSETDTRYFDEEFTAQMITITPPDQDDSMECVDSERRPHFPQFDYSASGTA

One may read the IC50 as the concentration that gives 50% inhibition.

The target of the experiment is AKT1 (Homo sapiens, UniProt P31749, S473D). Put plainly: Determination of the IC50 for AKT1 (HTRF). It is filed as biochemical. The settings on record: AKT1 without PH domain, activated by PDK1. Here is the method: Determination of the IC50 for AKT1
The inhibitory potential of the compounds is evaluated by HTRF, a time-resolved fluorescence technique based on non-radiative energy transfer (FRET). […] This phosphorylation allows the kinase activity of AKT1 to be activated.
Starting with a 10 mM solution of inhibitors, 3 μl are taken and placed in a 96-well polypropylene plate containing 27 μl of 100% DMSO. The various test compounds are diluted in cascade by taking 15 μl of compound, to which are added 30 μl of 100% DMSO.
The various reaction components are added in the following manner:
Next, 10 μl of the inhibitor solution are added. Finally, the reaction is initiated by adding 10 μl of a solution containing both 100 μM of ATP and 10 μM of biotinylated peptide. The sequence of this peptide is as follows: biot-[…] (reference Neosystem SP000560). The plate is then covered with a plastic film, agitated and finally incubated at RT for 30 minutes. […] After incubation overnight at 4° C., the plate is read using an Ultra evolution spectrophotometer from Tecan. […] All the tests are performed in duplicate and the mean of the two tests is calculated.
For each point, a delta F is calculated in the following manner:
R(Ratio)=counts665 nm/counts620 nm
ΔF % is calculated by the Tecan Ultra Evolution machine.
Background: Time-resolved FRET reads energy transfer from a long-lived donor to a nearby acceptor.

“1-(1H-Indazol-5-yl)-3-[(1-methylpiperid-2-yl)(phenyl)methyl]urea((S,2S),(R,2R)) [Ex 1]” returned an IC50 of 100 to 500 nM.

“1-(1H-Indazol-6-yl)-3-[(1-methylpiperid-2-yl)(phenyl)methyl]urea((S,2S),(R,2R)) [Ex 2]” displayed an IC50 of 100 to 500 nM.
